Measurements from paper PMC8924211 (Nature Communications, 2022).

What was measured:
Assay in all cases: Calcium assay, HEK293/Gα16 cells, GAL2R mutants
Type in all cases: cell-based
GAL2R mutants [1] = biological target: T1, GAL2R mutants (Homo sapiens, UniProt O43603, I85A); details: GAL2R I852.64A, spexin
T1 construct: expressed in transfected cells; host or cells: HEK293
T1 sequence (O43603 1-387 I85A): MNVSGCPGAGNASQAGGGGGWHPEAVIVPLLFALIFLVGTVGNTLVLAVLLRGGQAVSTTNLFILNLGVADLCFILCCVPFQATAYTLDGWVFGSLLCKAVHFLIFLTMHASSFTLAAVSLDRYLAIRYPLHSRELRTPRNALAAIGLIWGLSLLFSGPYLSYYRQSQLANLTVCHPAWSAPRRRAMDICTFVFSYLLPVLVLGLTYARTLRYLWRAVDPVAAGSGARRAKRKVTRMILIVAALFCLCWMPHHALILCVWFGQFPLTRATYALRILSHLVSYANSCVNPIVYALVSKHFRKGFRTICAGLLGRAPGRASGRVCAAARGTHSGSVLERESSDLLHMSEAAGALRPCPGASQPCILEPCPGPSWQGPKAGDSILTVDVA

GAL2R mutants [2] = biological target: T2, GAL2R mutants (Homo sapiens, UniProt O43603, R184A); details: GAL2R R1845.35A; spexin, HEK293/Gα16; mean ± S.E.M.
T2 construct: expressed in transfected cells; host or cells: HEK293
T2 sequence (O43603 1-387 R184A): T1 sequence (O43603 1-387 I85A) with A85I, R184A

GAL2R mutants [3] = biological target: T3, GAL2R mutants (Homo sapiens, UniProt O43603, T267A); details: GAL2R T2677.28A; spexin, HEK293/Gα16; mean ± S.E.M.
T3 construct: expressed in transfected cells; host or cells: HEK293
T3 sequence (O43603 1-387 T267A): T1 sequence (O43603 1-387 I85A) with A85I, T267A

GAL2R mutants [4] = biological target: T4, GAL2R mutants (Homo sapiens, UniProt O43603, Y86A); details: GAL2R Y862.65A, spexin
T4 construct: expressed in transfected cells; host or cells: HEK293
T4 sequence (O43603 1-387 Y86A): T1 sequence (O43603 1-387 I85A) with A85I, Y86A

GAL2R mutants [5] = biological target: T5, GAL2R mutants (Homo sapiens, UniProt O43603, V259A); details: GAL2R V2596.58A; spexin, HEK293/Gα16; mean ± S.E.M.
T5 construct: expressed in transfected cells; host or cells: HEK293
T5 sequence (O43603 1-387 V259A): T1 sequence (O43603 1-387 I85A) with A85I, V259A

GAL2R mutants [6] = biological target: T6, GAL2R mutants (Homo sapiens, UniProt O43603, Q82A); details: GAL2R Q822.61A, spexin
T6 construct: expressed in transfected cells; host or cells: HEK293
T6 sequence (O43603 1-387 Q82A): T1 sequence (O43603 1-387 I85A) with Q82A, A85I

Substance: spexin
- EC50 (GAL2R mutants [1]; replicate 1): no response
- EC50 (GAL2R mutants [1]; replicate 2): no response
- EC50 (GAL2R mutants [1]; replicate 3): no response
- EC50 (GAL2R mutants [2]): 3.98 ± 3.3 µM
- EC50 (GAL2R mutants [3]): 4 ± 3.27 µM
- EC50 (GAL2R mutants [4]; replicate 1): no response
- EC50 (GAL2R mutants [4]; replicate 2): no response
- EC50 (GAL2R mutants [4]; replicate 3): no response
- EC50 (GAL2R mutants [5]): 4.7 ± 1.69 µM
- EC50 (GAL2R mutants [6]; replicate 1): no response
- EC50 (GAL2R mutants [6]; replicate 2): no response
- EC50 (GAL2R mutants [6]; replicate 3): no response

Changes are numbered by the printed parent chain.
